# Assay results reported in patent US8987249B2, “Substituted 2-Aza-bicyclo[2.2.1]heptane-3-carboxylic acid (benzyl-cyano-methyl)-amides inhibitors of Cathepsin C” (Boehringer Ingelheim International GmbH, priority 2013, dated 2015).
# Amino acid sequences for entries named in this document (tags omitted). Residues count along the entry.
# UniProt P53634, 395-463: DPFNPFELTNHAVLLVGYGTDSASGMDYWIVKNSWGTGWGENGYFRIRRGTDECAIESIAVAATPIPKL
# UniProt P53634, 25-134: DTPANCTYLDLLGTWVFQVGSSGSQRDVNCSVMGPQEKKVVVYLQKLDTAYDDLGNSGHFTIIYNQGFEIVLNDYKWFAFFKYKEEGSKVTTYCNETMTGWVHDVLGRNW
# UniProt P53634, 231-394: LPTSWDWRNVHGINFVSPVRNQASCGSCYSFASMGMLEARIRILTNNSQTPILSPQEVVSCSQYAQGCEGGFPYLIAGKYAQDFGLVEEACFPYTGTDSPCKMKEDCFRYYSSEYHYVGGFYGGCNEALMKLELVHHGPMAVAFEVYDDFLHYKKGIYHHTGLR
# Target: recombinant human DPPI (Cathepsin C) (Homo sapiens (Human), UniProt P53634)
# Assay: Inhibition of human DPPI (Cathepsin C)
# Type: biochemical
# Conditions: substrate Gly-Arg-AMC
# Procedure: Inhibition of Human DPPI (Cathepsin C)
# Bovine serum albumin (BSA; Prod. No. A3059) and Dithiothreitol (DTT; Prod. No D0632) were from Sigma. […] The DPP1 inhibitor Gly-Phe-DMK was purchased from MP Biomedicals (Prod.-No. 03DK00625). The recombinant human DPPI was purchased from Prozymex. All other materials were of highest grade commercially available.
# The following buffers were used: MES buffer: 25 mM MES, 50 mM NaCl, 5 mM DTT, adjusted to pH 6.0, containing 0.1% BSA; TAGZyme Buffer: 20 mM NaH2PO4, 150 mM NaCl adjusted to pH 6.0 with HCl
# Then, 5 μL of substrate in MES buffer (final concentration 50 μM) were added. The microtiter plates were then incubated at room temperature for 30 min. Then, the reaction was stopped by adding 10 μL of Gly-Phe-DMK in MES-buffer (final concentration 1 μM).
# The analysis of the data was performed by calculating the percentage of fluorescence in the presence of test compound in comparison to the fluorescence of the vehicle control after subtracting the background fluorescence using the following formula: (RFU(sample)−RFU(background))*100/(RFU(control)−RFU(background))
# Data from these calculations were used to generate IC50 values for inhibition of DPPI, respectively.
compound,measurement,value
COCCn1cc(-c2ccc(C[C@@H](C#N)NC(=O)[C@H]3N[C@@H]4CC[C@H]3C4)c(F)c2)cn1 [Example 44],IC50,5.9 nM
Cc1cc(-c2ccc(C[C@@H](C#N)NC(=O)[C@H]3N[C@@H]4CC[C@H]3C4)c(F)c2)n(C)n1 [Example 63],IC50,9.3 nM
Cc1c(-c2ccc(C[C@@H](C#N)NC(=O)[C@H]3N[C@@H]4CC[C@H]3C4)c(F)c2)cnn1C [Example 65],IC50,9.4 nM
CC(C)n1cc(-c2ccc(CC(C#N)NC(=O)[C@H]3N[C@@H]4CC[C@H]3C4)c(F)c2)cn1 (stereo partly drawn) [Example 68],IC50,9.7 nM
COc1cccc(-c2cn(-c3ccc(C[C@@H](C#N)NC(=O)[C@H]4N[C@@H]5CC[C@H]4C5)c(F)c3)nn2)c1 [Example 94],IC50,18.7 nM
COCCn1cc(-c2ccc(CC(C#N)NC(=O)[C@H]3N[C@@H]4CC[C@H]3C4)c(F)c2)cn1 (stereo partly drawn) [Example 97],IC50,19.9 nM
CN1Cc2cc(-c3ccc(C[C@@H](C#N)NC(=O)[C@H]4N[C@@H]5CC[C@H]4C5)c(F)c3)ccc2S1(=O)=O [Example 169],IC50,4.1 nM
C[C@H]1CN(C)CCN1c1ccc(C[C@@H](C#N)NC(=O)[C@H]2N[C@@H]3CC[C@H]2C3)c(F)c1 [Example 188],IC50,9.8 nM
CC1CN(C)CCN1c1ccc(C[C@@H](C#N)NC(=O)[C@H]2N[C@@H]3CC[C@H]2C3)c(F)c1 (stereo partly drawn) [Example 192],IC50,11.3 nM
N#C[C@H](Cc1ccc(C2CCN(Cc3ccccc3)CC2)cc1F)NC(=O)[C@H]1N[C@@H]2CC[C@H]1C2 [Example 219],IC50,37.4 nM
N#C[C@H](Cc1ccc(-c2ccc(S(=O)(=O)N3CCC(F)(F)CC3)cc2)cc1F)NC(=O)[C@H]1N[C@@H]2CC[C@H]1C2 [Example 246],IC50,5.9 nM
N#C[C@H](Cc1ccc(N2CCCN3CCCC3C2)cc1F)NC(=O)[C@H]1N[C@@H]2CC[C@H]1C2 (stereo partly drawn) [Example 271],IC50,5.9 nM
N#C[C@H](Cc1ccc(-n2cc(C(F)(F)F)cn2)cc1F)NC(=O)[C@H]1N[C@@H]2CC[C@H]1C2 [Example 285],IC50,9.3 nM
CN1CCC(C)(c2ccc(C[C@@H](C#N)NC(=O)[C@H]3N[C@@H]4CC[C@H]3C4)c(F)c2)CC1 [Example 321],IC50,56.8 nM
N#C[C@H](Cc1ccc(N2CCN(C3CCOC3)CC2)cc1F)NC(=O)[C@H]1N[C@@H]2CC[C@H]1C2 (stereo partly drawn) [Example 331],IC50,9.3 nM
